± gives the expanded uncertainty stated by the source.
Assay: xn = mol fraction of the nth substance listed
Settings: Liquid, Vibrating tube method

CCCCOCCCC [dibutyl ether] + CCCCCCO
mass density [kg/m3]
Settings | x1 = 0.1503 | x1 = 0.3248 | x1 = 0.4999 | x1 = 0.6761 | x1 = 0.8431
293.15 K, 100 kPa | 810.2 ± 0.8 | 800.4 ± 0.8 | 791.5 ± 0.8 | 783.1 ± 0.8 | 775.5 ± 0.8
293.15 K, 10000 kPa | 816.9 ± 0.8 | 807.4 ± 0.8 | 798.8 ± 0.8 | 790.8 ± 0.8 | 783.4 ± 0.8
293.15 K, 20000 kPa | 823 ± 0.9 | 813.9 ± 0.8 | 805.6 ± 0.8 | 797.9 ± 0.8 | 790.7 ± 0.8
293.15 K, 30000 kPa | 828.7 ± 0.9 | 819.8 ± 0.9 | 811.7 ± 0.9 | 804.3 ± 0.9 | 797.4 ± 0.9
293.15 K, 40000 kPa | 834.2 ± 0.9 | 825.5 ± 0.9 | 817.6 ± 0.9 | 810.4 ± 0.9 | 803.7 ± 0.9
293.15 K, 50000 kPa | 839.2 ± 0.9 | 830.8 ± 0.9 | 823 ± 0.9 | 816 ± 0.9 | 809.5 ± 0.9
293.15 K, 60000 kPa | 843.9 ± 0.9 | 835.7 ± 0.9 | 828.1 ± 1 | 821.2 ± 1 | 814.9 ± 1
293.15 K, 70000 kPa | 848.5 ± 1 | 840.5 ± 1 | 833.1 ± 1 | 826.3 ± 1 | 820 ± 1
293.15 K, 80000 kPa | 852.9 ± 1 | 845 ± 1 | 837.8 ± 1 | 830.8 ± 1 | 824.9 ± 1
293.15 K, 90000 kPa | 857 ± 1 | 849.2 ± 1 | 842.1 ± 1 | 835.3 ± 1.1 | 829.5 ± 1.1
293.15 K, 100000 kPa | 861.3 ± 1 | 853.7 ± 1 | 846.6 ± 1.1 | 839.9 ± 1.1 | 834.2 ± 1.1
293.15 K, 110000 kPa | 865 ± 1.1 | 857.5 ± 1.1 | 850.6 ± 1.1 | 844 ± 1.1 | 838.4 ± 1.1
293.15 K, 120000 kPa | 868.8 ± 1.1 | 861.3 ± 1.1 | 854.5 ± 1.1 | 848 ± 1.1 | 842.5 ± 1.2
293.15 K, 130000 kPa | 872.4 ± 1.1 | 865 ± 1.1 | 858.3 ± 1.1 | 851.9 ± 1.2 | 846.4 ± 1.2
293.15 K, 140000 kPa | 875.9 ± 1.1 | 868.6 ± 1.1 | 862 ± 1.2 | 855.7 ± 1.2 | 850.3 ± 1.2
313.15 K, 100 kPa | 795.1 ± 0.8 | 785.1 ± 0.8 | 775.3 ± 0.8 | 766.3 ± 0.8 | 758.4 ± 0.8
313.15 K, 10000 kPa | 802.3 ± 0.8 | 792.7 ± 0.8 | 783.3 ± 0.8 | 774.7 ± 0.8 | 767.3 ± 0.8
313.15 K, 20000 kPa | 809 ± 0.8 | 799.7 ± 0.8 | 790.7 ± 0.8 | 782.5 ± 0.8 | 775.3 ± 0.8
313.15 K, 30000 kPa | 815.3 ± 0.9 | 806.4 ± 0.9 | 797.7 ± 0.9 | 789.7 ± 0.9 | 782.8 ± 0.9
313.15 K, 40000 kPa | 821 ± 0.9 | 812.4 ± 0.9 | 804 ± 0.9 | 796.2 ± 0.9 | 789.5 ± 0.9
313.15 K, 50000 kPa | 826.6 ± 0.9 | 818.1 ± 0.9 | 810 ± 0.9 | 802.4 ± 0.9 | 795.9 ± 0.9
313.15 K, 60000 kPa | 831.8 ± 0.9 | 823.5 ± 1 | 815.6 ± 1 | 808.2 ± 1 | 801.8 ± 1
313.15 K, 70000 kPa | 836.8 ± 1 | 828.8 ± 1 | 821 ± 1 | 813.7 ± 1 | 807.5 ± 1
313.15 K, 80000 kPa | 841.4 ± 1 | 833.6 ± 1 | 825.9 ± 1 | 818.8 ± 1 | 812.7 ± 1.1
313.15 K, 90000 kPa | 845.9 ± 1 | 838.2 ± 1 | 830.7 ± 1.1 | 823.7 ± 1.1 | 817.7 ± 1.1
313.15 K, 100000 kPa | 850.1 ± 1.1 | 842.5 ± 1.1 | 835.1 ± 1.1 | 828.2 ± 1.1 | 822.4 ± 1.1
313.15 K, 110000 kPa | 854.2 ± 1.1 | 846.8 ± 1.1 | 839.5 ± 1.1 | 832.8 ± 1.1 | 827 ± 1.2
313.15 K, 120000 kPa | 858.2 ± 1.1 | 850.9 ± 1.1 | 843.7 ± 1.1 | 837.1 ± 1.2 | 831.4 ± 1.2
313.15 K, 130000 kPa | 862 ± 1.1 | 854.8 ± 1.1 | 847.7 ± 1.2 | 841.2 ± 1.2 | 835.5 ± 1.2
313.15 K, 140000 kPa | 865.7 ± 1.1 | 858.6 ± 1.2 | 851.7 ± 1.2 | 845.2 ± 1.2 | 839.6 ± 1.3
333.15 K, 100 kPa | 780.1 ± 0.8 | 769.2 ± 0.8 | 759.8 ± 0.8 | 753 ± 0.8 | 742 ± 0.8
333.15 K, 10000 kPa | 788.1 ± 0.8 | 777.7 ± 0.8 | 768.6 ± 0.8 | 762.1 ± 0.8 | 751.8 ± 0.8
333.15 K, 20000 kPa | 795.6 ± 0.8 | 785.6 ± 0.8 | 776.7 ± 0.8 | 770.4 ± 0.8 | 760.7 ± 0.8
333.15 K, 30000 kPa | 802.4 ± 0.9 | 792.7 ± 0.9 | 784.1 ± 0.9 | 777.8 ± 0.9 | 768.7 ± 0.9
333.15 K, 40000 kPa | 808.7 ± 0.9 | 799.4 ± 0.9 | 790.9 ± 0.9 | 784.8 ± 0.9 | 776.1 ± 0.9
333.15 K, 50000 kPa | 814.6 ± 0.9 | 805.5 ± 0.9 | 797.3 ± 0.9 | 791.2 ± 0.9 | 782.9 ± 0.9
333.15 K, 60000 kPa | 820.1 ± 1 | 811.3 ± 1 | 803.2 ± 1 | 797.2 ± 1 | 789.2 ± 1
333.15 K, 70000 kPa | 825.3 ± 1 | 816.6 ± 1 | 808.7 ± 1 | 802.8 ± 1 | 795.1 ± 1
333.15 K, 80000 kPa | 830.3 ± 1 | 821.9 ± 1 | 814.1 ± 1 | 808.2 ± 1.1 | 800.8 ± 1.1
333.15 K, 90000 kPa | 835.3 ± 1 | 827 ± 1.1 | 819.4 ± 1.1 | 813.5 ± 1.1 | 806.4 ± 1.1
333.15 K, 100000 kPa | 839.8 ± 1.1 | 831.6 ± 1.1 | 824.1 ± 1.1 | 818.1 ± 1.1 | 811.3 ± 1.1
333.15 K, 110000 kPa | 843.9 ± 1.1 | 835.9 ± 1.1 | 828.6 ± 1.1 | 822.5 ± 1.2 | 816 ± 1.2
333.15 K, 120000 kPa | 847.6 ± 1.1 | 839.7 ± 1.1 | 832.5 ± 1.2 | 826.4 ± 1.2 | 820 ± 1.2
333.15 K, 130000 kPa | 851.8 ± 1.1 | 844 ± 1.2 | 836.9 ± 1.2 | 830.8 ± 1.2 | 824.7 ± 1.3
333.15 K, 140000 kPa | 855.6 ± 1.2 | 847.9 ± 1.2 | 840.9 ± 1.2 | 834.9 ± 1.3 | 828.9 ± 1.3
353.15 K, 100 kPa | 763.7 ± 0.8 | 752.3 ± 0.8 | 742.7 ± 0.8 | 735.5 ± 0.8 | 724.8 ± 0.7
353.15 K, 10000 kPa | 772.7 ± 0.8 | 761.9 ± 0.8 | 752.7 ± 0.8 | 745.7 ± 0.8 | 735.9 ± 0.8
353.15 K, 20000 kPa | 780.9 ± 0.8 | 770.6 ± 0.8 | 761.7 ± 0.8 | 755 ± 0.8 | 745.8 ± 0.8
353.15 K, 30000 kPa | 788.4 ± 0.9 | 778.6 ± 0.9 | 769.9 ± 0.9 | 763.3 ± 0.9 | 754.6 ± 0.9
353.15 K, 40000 kPa | 795.3 ± 0.9 | 785.8 ± 0.9 | 777.3 ± 0.9 | 770.9 ± 0.9 | 762.5 ± 0.9
353.15 K, 50000 kPa | 801.8 ± 0.9 | 792.5 ± 0.9 | 784.2 ± 0.9 | 777.9 ± 0.9 | 769.9 ± 1
353.15 K, 60000 kPa | 807.6 ± 1 | 798.7 ± 1 | 790.5 ± 1 | 784.3 ± 1 | 776.6 ± 1
353.15 K, 70000 kPa | 813.2 ± 1 | 804.5 ± 1 | 796.5 ± 1 | 790.3 ± 1 | 782.8 ± 1
353.15 K, 80000 kPa | 818.6 ± 1 | 810.1 ± 1 | 802.2 ± 1.1 | 796.1 ± 1.1 | 788.8 ± 1.1
353.15 K, 90000 kPa | 823.6 ± 1.1 | 815.3 ± 1.1 | 807.5 ± 1.1 | 801.5 ± 1.1 | 794.4 ± 1.1
353.15 K, 100000 kPa | 828.3 ± 1.1 | 820.1 ± 1.1 | 812.6 ± 1.1 | 806.5 ± 1.1 | 799.6 ± 1.2
353.15 K, 110000 kPa | 832.8 ± 1.1 | 824.9 ± 1.1 | 817.5 ± 1.2 | 811.3 ± 1.2 | 804.7 ± 1.2
353.15 K, 120000 kPa | 837.3 ± 1.1 | 829.4 ± 1.2 | 822.2 ± 1.2 | 816 ± 1.2 | 809.5 ± 1.2
353.15 K, 130000 kPa | 841.4 ± 1.2 | 833.5 ± 1.2 | 826.3 ± 1.2 | 820.4 ± 1.3 | 814.1 ± 1.3
353.15 K, 140000 kPa | 845.5 ± 1.2 | 837.7 ± 1.2 | 830.5 ± 1.3 | 824.7 ± 1.3 | 818.6 ± 1.3

Reference: the NIST ThermoML archive (doi:10.1016/j.fluid.2013.11.031)
